Test results taken from patent US8703910B2 (priority 2008, dated 2014).
Several values for one entry are separate records, joined by “and”; a condition that tells them apart may be missing. Identical values can stand only once.

System: House fly (Musca domestica)
Conditions: in vivo

Substance: bovine serum albumin [BSA Protein]
- Dead (Time post treatment): 1(?) (~7 hr) and 1 (~18 hr) and 1 (~26 hr)
